{
  "sequences": {"note": "Protein sequences, listed by entry. Tags and fused reporters are not part of them. Lines headed by an entry give the natural chain unless they say otherwise; changes in a name come on top.", "UniProt P41145": "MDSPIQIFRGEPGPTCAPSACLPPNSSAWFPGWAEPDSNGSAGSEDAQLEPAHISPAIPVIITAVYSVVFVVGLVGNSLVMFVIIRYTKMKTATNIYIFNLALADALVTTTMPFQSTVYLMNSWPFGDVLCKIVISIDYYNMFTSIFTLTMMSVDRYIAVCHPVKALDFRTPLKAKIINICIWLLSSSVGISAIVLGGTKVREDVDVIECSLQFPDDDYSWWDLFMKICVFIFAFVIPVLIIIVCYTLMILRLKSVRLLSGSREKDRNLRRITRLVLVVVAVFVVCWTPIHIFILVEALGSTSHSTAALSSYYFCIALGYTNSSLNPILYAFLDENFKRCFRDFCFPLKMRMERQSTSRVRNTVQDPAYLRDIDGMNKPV"},
  "source": "ChEMBL document CHEMBL1145447",
  "about": "“Synthetic studies of neoclerodane diterpenes from Salvia divinorum: preparation and opioid receptor activity of salvinicin analogues” (J Med Chem, 2007)",
  "target": "Kappa-type opioid receptor (Homo sapiens, UniProt P41145)",
  "assay": "Displacement of [125I]IOXY from human kappa opioid receptor expressed in CHO cells",
  "format": "cell-based",
  "procedure,_shortened": "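Membranes from CHO cells stably transfected with the respective human opioid receptor cDNA (hMOR-, hDOR-, hKOR-CHO). Incubation in 50 mM Tris-HCl pH 7.4 with bacitracin, bestatin, leupeptin and chymostatin. Nonspecific binding is defined with 10 µM naloxone. Ki is the mean ± SD of at least two independent determinations.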",
  "data": [
    {"smiles": "COC(=O)[C@@H]1C[C@H](O)C(=O)[C@H]2[C@@]1(C)CC[C@H]1C(=O)O[C@H](c3ccoc3)C[C@]21C", "note": "[SALVINORIN B]", "values": [
      {"measurement": "Ki", "value": 0.28, "unit": "µM"}
    ]}
  ]
}
